The record followed here is US8486918B2, “Phenyl oxadiazole derivatives as sphingosine 1-phosphate (S1P) receptor” (Allergan, Inc., priority 2010, dated 2013).

Amino acid sequences for entries named in this document (tags omitted).
UniProt P21453, whole entry: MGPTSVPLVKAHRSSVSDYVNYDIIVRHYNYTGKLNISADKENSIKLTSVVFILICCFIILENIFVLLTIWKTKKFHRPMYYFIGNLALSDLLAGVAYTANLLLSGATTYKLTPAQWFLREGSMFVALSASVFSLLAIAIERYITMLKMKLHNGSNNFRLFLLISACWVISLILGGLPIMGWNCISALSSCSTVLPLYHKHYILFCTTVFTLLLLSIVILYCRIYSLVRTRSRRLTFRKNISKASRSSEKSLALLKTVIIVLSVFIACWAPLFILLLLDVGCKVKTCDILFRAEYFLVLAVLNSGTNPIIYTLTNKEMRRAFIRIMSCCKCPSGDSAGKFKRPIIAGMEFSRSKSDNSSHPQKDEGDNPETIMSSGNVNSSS

The target in this assay is human S1P1 receptor (Homo sapiens, UniProt P21453). Description: GTP γ35S binding assay for S1P1 activity. The note with it: read-out: S1P1 EC50, membranes of cells stably expressing the S1P1 receptor, test concentrations 0.08 to 5,000 nM. The method, then:
Compounds were synthesized and tested for S1P1 activity using the GTP γ^35S binding assay. These compounds may be assessed for their ability to activate or block activation of the human S1P1 receptor in cells stably expressing the S1P1 receptor.
GTP γ^35S binding was measured in the medium containing (mM) HEPES 25, pH 7.4, MgCl2 10, NaCl 100, dithitothreitol 0.5, digitonin 0.003%, 0.2 nM GTP γ^35S, and 5 μg membrane protein in a volume of 150 μl. Test compounds were included in the concentration range from 0.08 to 5,000 nM unless indicated otherwise. Membranes were incubated with 100 μM 5′-adenylylimmidodiphosphate for 30 min, and subsequently with 10 μM GDP for 10 min on ice. Drug solutions and membrane were mixed, and then reactions were initiated by adding GTP γ^35S and continued for 30 min at 25° C. Reaction mixtures were filtered over Whatman GF/B filters under vacuum, and washed three times with 3 mL of ice-cold buffer (HEPES 25, pH7.4, MgCl2 10 and NaCl 100). Filters were dried and mixed with scintillant, and counted for ^35S activity using a β-counter. Agonist-induced GTP γ^35S binding was obtained by subtracting that in the absence of agonist. Binding data were analyzed using a non-linear regression method. In case of antagonist assay, the reaction mixture contained 10 nM S1P in the presence of test antagonist at concentrations ranging from 0.08 to 5000 nM.
Background: GTPγS is a poorly hydrolysed GTP analogue; its binding reports G protein activation.
In the case of `Cc1ccc(OC(c2cccc(Cl)c2)c2nc(-c3ccc(CNCCC(=O)O)cc3)no2)cc1C` (stereo not drawn), the EC50 was found to be 134 nM.

With `Cc1ccc(SC(c2ccc(Cl)cc2)c2nc(-c3ccc(CNCCC(=O)O)cc3)no2)cc1C` (stereo not drawn), the EC50 amounted to 1240 nM.

As for `Cc1ccc(SC(c2cccc(Cl)c2)c2nc(-c3ccc(CNCCC(=O)O)cc3)no2)cc1C` (stereo not drawn), the EC50 stood at 76.7 nM.
